Target: Histamine H3 receptor (Rattus norvegicus, UniProt Q9QYN8)
Test: Binding affinity against rat histamine H3 receptor

Amino acid sequences for entries named in this document (tags omitted). A change or cut given only in a name is not applied to a line headed by its entry.
UniProt Q9QYN8: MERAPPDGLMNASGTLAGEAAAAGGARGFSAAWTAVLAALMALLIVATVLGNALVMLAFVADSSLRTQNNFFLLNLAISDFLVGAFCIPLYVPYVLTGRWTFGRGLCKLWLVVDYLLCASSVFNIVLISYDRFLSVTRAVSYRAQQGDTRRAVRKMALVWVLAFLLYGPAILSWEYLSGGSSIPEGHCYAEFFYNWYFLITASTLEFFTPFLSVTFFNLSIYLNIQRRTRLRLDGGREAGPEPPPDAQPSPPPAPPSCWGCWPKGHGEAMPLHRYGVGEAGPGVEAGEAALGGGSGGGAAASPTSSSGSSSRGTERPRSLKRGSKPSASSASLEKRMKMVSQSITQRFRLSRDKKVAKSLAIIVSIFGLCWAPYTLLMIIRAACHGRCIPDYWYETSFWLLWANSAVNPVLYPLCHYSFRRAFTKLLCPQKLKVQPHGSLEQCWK

O=C(c1ccc(OCCCN2CC[C@H](NS(=O)(=O)c3ccccc3Cl)C2)cc1)C1CC1
Ki: 3.7 nM

Reference: ChEMBL document CHEMBL1134928, “Synthesis and evaluation of potent pyrrolidine H(3) antagonists” (Bioorg Med Chem Lett, 2002)
